According to patent US5602278A (priority 1994, dated 1997):

Key:
[1] = system: cell lines which lack the levels of reductive enzymes; settings: Mann et al., 1991; cited from earlier work
[2] = system: EMT6 mouse mammary carcinoma cells
[3] = system: CaNT murine adenocarcinoma

Structure (SMILES): O=C(O)CCCc1ccc([N+]([O-])(CCCl)CCCl)cc1
- preferential toxicity under hypoxia [1]: not preferentially toxic under hypoxia
- in vivo toxicity (In vivo toxicity): minimal in vivo toxicity
- toxicity with reducing enzymes under hypoxia [2]: greater toxicity with reducing enzymes under hypoxia
- in vivo toxicity to tumor relative to CHL ([3]; CaNT tumor surviving fraction, FIG. 4B): less toxic than CHL
- potentiation of in vivo cytotoxicity by hydralazine ([3]; i.p., CHL-HD 200 mg/kg, hydralazine 5 mg/kg): can be potentiated by the administration of hydralazine
